Drawing on patent US20160220637A1, “Pharmaceutical Compositions of Growth Hormone Secretagogue Receptor Ligands” (Ipsen Pharma S.A.S., priority 2010, published 2016), this text covers Ki for 31 compounds.

Amino acid sequences for entries named in this document (tags omitted).
UniProt Q92847, whole entry: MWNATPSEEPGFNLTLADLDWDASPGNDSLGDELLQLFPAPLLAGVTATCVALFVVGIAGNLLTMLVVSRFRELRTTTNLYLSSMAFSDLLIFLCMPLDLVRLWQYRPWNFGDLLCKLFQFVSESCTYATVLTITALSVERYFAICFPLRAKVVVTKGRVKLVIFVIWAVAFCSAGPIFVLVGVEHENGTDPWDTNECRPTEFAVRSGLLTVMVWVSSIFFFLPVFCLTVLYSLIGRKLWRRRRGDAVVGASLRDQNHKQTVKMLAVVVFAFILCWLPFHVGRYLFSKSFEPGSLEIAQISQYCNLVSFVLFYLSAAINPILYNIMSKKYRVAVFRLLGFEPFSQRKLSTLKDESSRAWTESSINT

For the first assay, the target named is T1, human recombinant GHS receptor (Homo sapiens, UniProt Q92847).
Experiment: not given
The settings on record: read-out: hGHS Ki; 0.05 nM (125I)ghrelin, 60 min, 4° C., CHO-K1 membranes.
Regarding `NC(=O)[C@H](Cc1cscn1)NC(=O)[C@@H](Cc1c[nH]c2ccccc12)NC(=O)[C@@H](Cc1csc2ccccc12)NC(=O)C1(N)CCNCC1` [Example 59, H-Apc-D-Bal-D-Trp-Taz-NH2], the Ki (usually a measure of affinity in units of concentration, obtained from inhibition or displacement) turned out to be 1.62 nM.
Still for that read-out and setting: under `NCCCC[C@H](NC(=O)[C@H](Cc1ccccc1)NC(=O)[C@@H](Cc1c[nH]c2ccccc12)NC(=O)[C@H](NC(=O)C1CCNCC1)C(c1ccccc1)c1ccccc1)C(N)=O` [Example 10, H-Inp-D-Dip-D-Trp-Phe-Lys-NH2] stands 46.8 nM; under `NC(=O)[C@H](Cc1ccccc1)NC(=O)[C@@H](Cc1c[nH]c2ccccc12)NC(=O)[C@H](NC(=O)C1CCNCC1)C(c1ccccc1)c1ccccc1` [Example 21, H-Inp-D-Dip-D-Trp-Phe-NH2], 105 nM.
On the same count and under the same terms, under `NC(=O)[C@H](Cc1c(F)c(F)c(F)c(F)c1F)NC(=O)[C@@H](Cc1c[nH]c2ccccc12)NC(=O)[C@@H](Cc1ccc2ccccc2c1)NC(=O)C1CCNCC1` [Example 18, H-Inp-D-2Nal-D-Trp-Pff-NH2] stands 36.3 nM; under `NCCCC[C@H](NC(=O)[C@H](Cc1ccccc1)NC(=O)[C@@H](Cc1c[nH]c2ccccc12)NC(=O)[C@@H](Cc1ccc(-c2ccccc2)cc1)NC(=O)C1CCNCC1)C(N)=O` [Example 5, H-Inp-D-Bip-D-Trp-Phe-Lys-NH2], 1.35 nM.
Still for that read-out and setting: the figure for `NC(=O)C1(NC(=O)[C@H](Cc2ccccc2)NC(=O)[C@@H](Cc2ccc3ccccc3c2)NC(=O)[C@@H](Cc2csc3ccccc23)NC(=O)C2(N)CCNCC2)CCNCC1` [Example 52, H-Apc-D-Bal-D-2Nal-Phe-Apc-NH2] is 1.49 nM; for `NC(=O)[C@H](Cc1ccccc1)NC(=O)[C@H](NC(=O)[C@@H](Cc1ccc2ccccc2c1)NC(=O)C1CCNCC1)C(c1ccccc1)c1ccccc1` [Example 22, H-Inp-D-2Nal-D-Dip-Phe-NH2] it is 105 nM.
Turning to `NC(=O)[C@H](Cc1cscn1)NC(=O)[C@@H](Cc1c[nH]c2ccccc12)NC(=O)[C@@H](Cc1ccc2ccccc2c1)NC(=O)C1(N)CCNCC1` [Example 61, H-Apc-D-2Nal-D-Trp-Taz-NH2], the Ki came out at 2.11 nM.
On the same count and under the same terms, the figure for `NC(=O)C1(NC(=O)[C@H](Cc2ccccc2)NC(=O)[C@@H](Cc2cccc3ccccc23)NC(=O)[C@@H](Cc2csc3ccccc23)NC(=O)C2(N)CCNCC2)CCNCC1` [Example 51, H-Apc-D-Bal-D-1Nal-Phe-Apc-NH2] is 3.48 nM; for `NCCCC[C@H](NC(=O)[C@H](Cc1c(F)c(F)c(F)c(F)c1F)NC(=O)[C@@H](Cc1c[nH]c2ccccc12)NC(=O)[C@@H](Cc1ccc2ccccc2c1)NC(=O)C1CCNCC1)C(N)=O` [Example 7, H-Inp-D-2Nal-D-Trp-Pff-Lys-NH2] it is 25.4 nM.
Consider `NCCCC[C@H](NC(=O)[C@H](Cc1ccccc1)NC(=O)[C@@H](Cc1c[nH]c2ccccc12)NC(=O)[C@@H](Cc1cccc2ccccc12)NC(=O)C1(N)CCNCC1)C(N)=O` [Example 44, H-Apc-D-1Nal-D-Trp-Phe-Lys-NH2], for which the Ki is 0.42 nM.
Same read-out and setting: the figure for `NCCCC[C@H](NC(=O)[C@H](Cc1cccs1)NC(=O)[C@@H](Cc1c[nH]c2ccccc12)NC(=O)[C@@H](Cc1cccc2ccccc12)NC(=O)C1(N)CCNCC1)C(N)=O` [Example 32, H-Apc-D-1Nal-D-Trp-2Thi-Lys-NH2] is 0.29 nM; for `NC(=O)C1(NC(=O)[C@H](Cc2cscn2)NC(=O)[C@@H](Cc2c[nH]c3ccccc23)NC(=O)[C@@H](Cc2cccc3ccccc23)NC(=O)C2(N)CCNCC2)CCNCC1` [Example 64, H-Apc-D-1Nal-D-Trp-Taz-Apc-NH2] it is 0.98 nM.
On the same count and under the same terms, the figure for `NCCCC[C@H](NC(=O)[C@H](Cc1ccccc1)NC(=O)[C@@H](Cc1ccc(C(=O)c2ccccc2)cc1)NC(=O)[C@@H](Cc1ccc2ccccc2c1)NC(=O)C1CCNCC1)C(N)=O` [Example 12, H-Inp-D-2Nal-D-Bpa-Phe-Lys-NH2] is 419 nM; for `NC(=O)C1(NC(=O)[C@H](Cc2ccccc2)NC(=O)[C@@H](Cc2cccc3ccccc23)NC(=O)[C@@H](Cc2cccc3ccccc23)NC(=O)C2(N)CCNCC2)CCNCC1` [Example 48, H-Apc-D-1Nal-D-1Nal-Phe-Apc-NH2] it is 1.99 nM.
Consider `NCCCC[C@H](NC(=O)[C@H](Cc1ccccc1)NC(=O)[C@@H](Cc1c[nH]c2ccccc12)NC(=O)[C@@H](Cc1ccc(C(=O)c2ccccc2)cc1)NC(=O)C1CCNCC1)C(N)=O` [Example 11, H-Inp-D-Bpa-D-Trp-Phe-Lys-NH2], for which the Ki came to 93.8 nM.

The next assay deals with T1, human recombinant GHS receptor. The assay is described as follows: biochemical.
Settings: not given
For the compound `NC(=O)[C@H](Cc1cccs1)NC(=O)[C@@H](Cc1c[nH]c2ccccc12)NC(=O)[C@@H](Cc1cccc2ccccc12)NC(=O)C1(N)CCNCC1` [Example 55, H-Apc-D-1Nal-D-Trp-2Thi-NH2], the Ki came to 0.73 nM.
The same measure, in the same setting: the figure for `NC(=O)C1(NC(=O)[C@H](Cc2ccccc2)NC(=O)[C@@H](Cc2c[nH]c3ccccc23)NC(=O)[C@@H](Cc2ccc3ccccc3c2)NC(=O)C2CCNCC2)CCNCC1` [Example 29, H-Inp-D-2Nal-D-Trp-Phe-Apc-NH2] is 0.64 nM.
For `NC(=O)C1(NC(=O)[C@H](Cc2ccccc2)NC(=O)[C@@H](Cc2ccc3ccccc3c2)NC(=O)[C@@H](Cc2cccc3ccccc23)NC(=O)C2(N)CCNCC2)CCNCC1` [Example 49, H-Apc-D-1Nal-D-2Nal-Phe-Apc-NH2], the Ki was 1.71 nM.
Still for that read-out and setting: the figure for `O=C(N[C@H](Cc1csc2ccccc12)C(=O)N[C@H](Cc1c[nH]c2ccccc12)c1nc(-c2ccccc2)c[nH]1)C1CCNCC1` [Example 68, H-Inp-D-Bal-D-Trp(Ψ)-Pim] is 48.7 nM.
For `NC(=O)C1(NC(=O)[C@H](Cc2ccccc2)NC(=O)[C@@H](Cc2c[nH]c3ccccc23)NC(=O)[C@@H](Cc2cccc3ccccc23)NC(=O)C2CCNCC2)CCNCC1` [Example 30, H-Inp-D-1Nal-D-Trp-Phe-Apc-NH2], the Ki stood at 0.36 nM.
Consider `NC(=O)[C@H](Cc1ccccc1)NC(=O)[C@@H](Cc1csc2ccccc12)NC(=O)[C@@H](Cc1ccc2ccccc2c1)NC(=O)C1CCNCC1` [Example 24, H-Inp-D-2Nal-D-Bal-Phe-NH2], for which the Ki came out at 27.4 nM.
As to `NCCCC[C@H](NC(=O)[C@H](Cc1ccccc1)NC(=O)[C@@H](Cc1c[nH]c2ccccc12)NC(=O)[C@@H](Cc1csc2ccccc12)NC(=O)C1(N)CCNCC1)C(N)=O` [Example 45, H-Apc-D-Bal-D-Trp-Phe-Lys-NH2], the Ki is 0.32 nM.
As for `NC(=O)C1(NC(=O)[C@H](Cc2cccs2)NC(=O)[C@@H](Cc2c[nH]c3ccccc23)NC(=O)[C@@H](Cc2cccc3ccccc23)NC(=O)C2CCNCC2)CCNCC1` [Example 40, H-Inp-D-1Nal-D-Trp-2Thi-Apc-NH2], the Ki turned out to be 0.53 nM.
For the compound `NCCCC[C@H](NC(=O)[C@H](Cc1ccccc1)NC(=O)[C@@H](Cc1c[nH]c2ccccc12)NC(=O)[C@@H](Cc1ccc2ccccc2c1)NC(=O)C1(N)CCNCC1)C(N)=O` [Example 31, H-Apc-D-2Nal-D-Trp-Phe-Lys-NH2], the Ki was 0.42 nM.
Same read-out and setting: under `NC(=O)[C@H](Cc1cccs1)NC(=O)[C@@H](Cc1c[nH]c2ccccc12)NC(=O)[C@@H](Cc1csc2ccccc12)NC(=O)C1(N)CCNCC1` [Example 58, H-Apc-D-Bal-D-Trp-2Thi-NH2] stands 0.98 nM; under `NC(=O)C1(NC(=O)[C@H](Cc2ccccc2)NC(=O)[C@@H](Cc2c[nH]c3ccccc23)NC(=O)[C@@H](Cc2cccc3ccccc23)NC(=O)C2(N)CCNCC2)CCNCC1` [Example 46, H-Apc-D-1Nal-D-Trp-Phe-Apc-NH2], 0.46 nM; under `NC(=O)[C@H](Cc1ccccc1)NC(=O)[C@@H](Cc1c[nH]c2ccccc12)NC(=O)[C@@H](Cc1csc2ccccc12)NC(=O)C1CCNCC1` [Example 23, H-Inp-D-Bal-D-Trp-Phe-NH2], 2.3 nM.
Same read-out and setting: under `NC(=O)C1(NC(=O)[C@H](Cc2ccccc2)NC(=O)[C@@H](Cc2c[nH]c3ccccc23)NC(=O)[C@@H](Cc2csc3ccccc23)NC(=O)C2CCNCC2)CCNCC1` [Example 1, H-Inp-D-Bal-D-Trp-Phe-Apc-NH2] stands 0.42 nM.
The same measure, in the same setting: under `NC(=O)[C@H](Cc1cccs1)NC(=O)[C@@H](Cc1c[nH]c2ccccc12)NC(=O)[C@@H](Cc1ccc2ccccc2c1)NC(=O)C1(N)CCNCC1` [Example 60, H-Apc-D-2Nal-D-Trp-2Thi-NH2] stands 0.95 nM.
Turning to `NC(=O)C1(NC(=O)[C@H](Cc2cscn2)NC(=O)[C@@H](Cc2c[nH]c3ccccc23)NC(=O)[C@@H](Cc2csc3ccccc23)NC(=O)C2(N)CCNCC2)CCNCC1` [Example 65, H-Apc-D-Bal-D-Trp-Taz-Apc-NH2], the Ki was found to be 1.13 nM.
